Assay results reported in ChEMBL document CHEMBL1153990, “Exploring the PI3K alpha and gamma binding sites with 2,6-disubstituted isonicotinic derivatives” (Bioorg Med Chem Lett, 2009).

Protein sequences, listed by entry. Tags and fused reporters are not part of them. Lines headed by an entry give the natural chain unless they say otherwise; changes in a name come on top.
UniProt P48736: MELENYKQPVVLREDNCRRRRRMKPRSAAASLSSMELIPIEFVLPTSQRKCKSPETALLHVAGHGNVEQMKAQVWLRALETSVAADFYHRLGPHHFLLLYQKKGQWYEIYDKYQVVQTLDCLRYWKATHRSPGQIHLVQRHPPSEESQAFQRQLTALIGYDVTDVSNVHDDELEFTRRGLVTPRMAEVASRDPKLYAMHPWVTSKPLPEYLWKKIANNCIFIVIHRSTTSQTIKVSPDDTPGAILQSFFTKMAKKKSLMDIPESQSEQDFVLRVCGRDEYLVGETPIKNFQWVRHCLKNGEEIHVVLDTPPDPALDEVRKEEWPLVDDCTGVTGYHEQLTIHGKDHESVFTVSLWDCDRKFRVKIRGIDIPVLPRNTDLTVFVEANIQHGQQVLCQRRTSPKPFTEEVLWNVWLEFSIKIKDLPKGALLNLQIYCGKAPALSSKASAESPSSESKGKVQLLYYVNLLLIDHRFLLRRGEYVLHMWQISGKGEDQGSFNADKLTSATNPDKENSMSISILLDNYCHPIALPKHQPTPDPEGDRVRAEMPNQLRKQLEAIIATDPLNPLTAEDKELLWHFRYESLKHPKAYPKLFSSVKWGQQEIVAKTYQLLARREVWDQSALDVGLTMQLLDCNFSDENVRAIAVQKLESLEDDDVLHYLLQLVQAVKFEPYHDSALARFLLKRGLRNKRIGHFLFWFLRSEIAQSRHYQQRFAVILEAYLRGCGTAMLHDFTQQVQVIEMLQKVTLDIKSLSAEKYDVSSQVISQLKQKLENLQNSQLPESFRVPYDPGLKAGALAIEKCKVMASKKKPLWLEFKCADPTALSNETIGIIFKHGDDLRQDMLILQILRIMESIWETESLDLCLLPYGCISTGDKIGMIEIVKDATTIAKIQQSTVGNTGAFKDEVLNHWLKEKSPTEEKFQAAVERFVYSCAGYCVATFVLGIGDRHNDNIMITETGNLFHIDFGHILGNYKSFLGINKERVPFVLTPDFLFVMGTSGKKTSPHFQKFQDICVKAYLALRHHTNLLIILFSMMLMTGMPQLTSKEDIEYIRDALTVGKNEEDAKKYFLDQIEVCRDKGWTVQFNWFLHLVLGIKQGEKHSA

Molecular target: Phosphatidylinositol 4,5-bisphosphate 3-kinase catalytic subunit gamma isoform (Homo sapiens, UniProt P48736)
Experiment: Inhibition of PI3Kgamma by luminescent kinase glo assay

IC50: 1200 nM
Structure (SMILES): O=c1cc(N2CCOCC2)oc2c(-c3ccccc3)cccc12 [LY-294002]
